Data published in patent publication US20240262879.

What was measured:
[1] = test system: Control (peptide of Table 12)
[2] = test system: Peptide 8
[3] = test system: Peptide 5 (GPLGVRG)
[4] = test system: Peptide 10

With rhMMP13 the Specific Activity [1] was 10 pmol/min/µg, the Specific Activity [2] was 344 pmol/min/µg and the Specific Activity [3] was 362 pmol/min/µg. For the same substance, the Specific Activity [4] was 156 pmol/min/µg.
